# Measurements reported in EP2601931A2, “Cosmetic use of 3-methyl-1-phenyl-5-pyrazolon” (Henkel AG&Co. KGAA, priority 2011, dated 2013).
# Tests used:
# Kollagen-Neusynthese = assay: Collagen neosynthesis: P1NP secreted into the medium of a fibroblast / 3D epidermis model co-culture; assay type: cell-based
# From the text: Ein in der Kosmetik relevanter Parameter für die Anti-Aging-Leistung eines Produktes ist die Induktion der Kollagen-Neusynthese. […] Zum Nachweis der Kollagen-Neusynthese wurde ein Co-Kultur-System verwendet, das aus einer zweidimensionalen Fibroblasten-Kultur besteht, auf die in einem Insert ein dreidimensionales Epidermismodell aufgesetzt wurde. Über das Nährmedium kann ein Stoffaustausch zwischen den Fibroblasten und den Keratinocyten des Epidermismodells erfolgen. […] Als Kontrollen für die Syntheseinduktion wurden Retinsäure und Retinol eingesetzt.
# CYP26A1 = assay: RAMBA activity: change in CYP26A1 marker expression by qPCR in keratinocytes incubated with substance plus retinoic acid; settings: in combination with Retinsäure; result in words on Tabelle 1
# From the text: Verschiedene kosmetische Wirkstoffe, die zur Stoffklasse der Azole gerechnet werden können, wurden auf eine mögliche RAMBA-Aktivität hin untersucht. Zu diesem Zweck wurden humane Keratinocyaten für 16 Stunden mit den entsprechenden Substanzen in Kombination mit Retinsäure inkubiert und anschließend mittels qPCR die Expressionsänderung des Markers CYP26A1 verfolgt. Das Enzym CYP26A1 bewirkt die Metabolisierung der Retinsäure und wird durch die Retinsäure selber induziert, wodurch eine Feedbak-Regulation der Retinsäurekonzentration in der Zelle ermöglicht wird. […] Tabelle 1
compound,measurement,setting,value
CC(=O)N1CCN(c2ccc(OC[C@H]3CO[C@](Cn4ccnc4)(c4ccc(Cl)cc4Cl)O3)cc2)CC1 (racemic) [Ketokonazol],P1NP,"Kollagen-Neusynthese; 50µM, Co-Kultur-System, P1NP in medium, unbehandelt = 107",196 µg/mL
same,Induktion der Kollagensynthese,Kollagen-Neusynthese; result in words on Tabelle 2,zeigen eine Induktion der Kollagensynthese
same,Induktion von CYP26A1,CYP26A1,deutlich vermindert
